Test results from US11008317B2, “Triazolopyridine inhibitors of myeloperoxidase and/or EPX” (priority 2016, dated 2021).

Columns and labels:
myeloperoxidase [1] = target: T1, myeloperoxidase (Homo sapiens, UniProt P05164); test: MPO Peroxidation Assay (Amplex Red Assay); type: biochemical; settings: potency range class
T1 sequence (P05164 49-745): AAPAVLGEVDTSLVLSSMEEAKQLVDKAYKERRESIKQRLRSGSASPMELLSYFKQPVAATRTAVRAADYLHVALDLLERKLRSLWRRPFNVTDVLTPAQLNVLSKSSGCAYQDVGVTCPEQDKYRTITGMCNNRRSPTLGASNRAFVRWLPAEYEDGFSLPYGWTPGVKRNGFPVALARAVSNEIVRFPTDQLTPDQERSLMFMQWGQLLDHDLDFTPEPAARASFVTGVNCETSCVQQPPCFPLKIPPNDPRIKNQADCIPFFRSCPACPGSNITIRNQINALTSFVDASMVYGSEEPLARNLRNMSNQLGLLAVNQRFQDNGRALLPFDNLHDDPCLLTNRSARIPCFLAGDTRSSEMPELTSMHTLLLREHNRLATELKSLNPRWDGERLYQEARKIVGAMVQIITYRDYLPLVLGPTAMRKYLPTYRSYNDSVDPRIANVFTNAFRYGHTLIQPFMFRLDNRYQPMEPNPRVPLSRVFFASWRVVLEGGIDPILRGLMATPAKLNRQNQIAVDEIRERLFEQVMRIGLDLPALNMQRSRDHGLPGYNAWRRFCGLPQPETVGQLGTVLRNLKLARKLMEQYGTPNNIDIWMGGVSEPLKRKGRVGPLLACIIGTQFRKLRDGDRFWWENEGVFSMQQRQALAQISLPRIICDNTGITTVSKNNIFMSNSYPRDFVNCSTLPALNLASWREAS

myeloperoxidase [2] = target: T1, myeloperoxidase; test: MPO Chlorination Assay (APF Assay); type: biochemical; settings: potency range class

An IC50 (myeloperoxidase [1]) of 101 to 999 nM and an IC50 (myeloperoxidase [2]) of 1 to 100 nM were found for `Nc1cc(C(CCNC23CC(c4ccccc4)(C2)C3)c2ccccc2)c2nn[nH]c2n1` (centres unmarked) [Example 111, 7-[1-phenyl-3-({3-phenylbicyclo[1.1.1]pentan-1-yl}amino)propyl]-3H-[1,2,3] triazolo[4,5-b] pyridin-5-amine] in this work.
